In PubChem BioAssay (NCI):
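Following 48 hours of exposure in 96-well plates, responses at five concentrations were used to interpolate endpoints linearly. GI50 marks 50% less growth. TGI: total growth inhibition.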

Assays:
Assay in all cases: NCI anticancer screen, dose series, 48 h
786-0 renal = system: 786-0 renal
A498 renal = system: A498 renal
A549 NSCLC = system: A549 NSCLC
ACHN renal = system: ACHN renal
BT-549 breast = system: BT-549 breast
CAKI-1 renal = system: CAKI-1 renal
CCRF-CEM leukemia = system: CCRF-CEM leukemia
COLO 205 colon = system: COLO 205 colon
DU-145 prostate = system: DU-145 prostate
EKVX NSCLC = system: EKVX NSCLC
HCC-2998 colon = system: HCC-2998 colon
HCT-116 colon = system: HCT-116 colon
HCT-15 colon = system: HCT-15 colon
HL-60(TB) leukemia = system: HL-60(TB) leukemia
HOP-62 NSCLC = system: HOP-62 NSCLC
HOP-92 NSCLC = system: HOP-92 NSCLC
HS 578T breast = system: HS 578T breast
HT29 colon = system: HT29 colon
IGROV1 ovarian = system: IGROV1 ovarian
K-562 leukemia = system: K-562 leukemia
KM12 colon = system: KM12 colon
LOX IMVI melanoma = system: LOX IMVI melanoma
M14 melanoma = system: M14 melanoma
MALME-3M melanoma = system: MALME-3M melanoma
MDA-MB-231 breast = system: MDA-MB-231 breast
MDA-MB-435 = system: MDA-MB-435
MDA-N = system: MDA-N
MOLT-4 leukemia = system: MOLT-4 leukemia
NCI-H226 lung = system: NCI-H226 lung
NCI-H23 lung = system: NCI-H23 lung
NCI-H322M lung = system: NCI-H322M lung
NCI-H460 lung = system: NCI-H460 lung
NCI-H522 lung = system: NCI-H522 lung
NCI/ADR-RES ovarian = system: NCI/ADR-RES ovarian
OVCAR-3 ovarian = system: OVCAR-3 ovarian
OVCAR-4 ovarian = system: OVCAR-4 ovarian
OVCAR-5 ovarian = system: OVCAR-5 ovarian
OVCAR-8 ovarian = system: OVCAR-8 ovarian
PC-3 prostate = system: PC-3 prostate
RPMI-8226 leukemia = system: RPMI-8226 leukemia
RXF 393 renal = system: RXF 393 renal
SF-268 CNS = system: SF-268 CNS
SF-295 CNS = system: SF-295 CNS
SK-MEL-2 melanoma = system: SK-MEL-2 melanoma
SK-MEL-28 melanoma = system: SK-MEL-28 melanoma
SK-MEL-5 melanoma = system: SK-MEL-5 melanoma
SK-OV-3 ovarian = system: SK-OV-3 ovarian
SN12C renal = system: SN12C renal
SNB-19 CNS = system: SNB-19 CNS
SNB-75 CNS = system: SNB-75 CNS
SR leukemia = system: SR leukemia
SW-620 colon = system: SW-620 colon
T-47D breast = system: T-47D breast
TK-10 renal = system: TK-10 renal
U251 CNS = system: U251 CNS
UACC-257 melanoma = system: UACC-257 melanoma
UACC-62 melanoma = system: UACC-62 melanoma
UO-31 renal = system: UO-31 renal

Molecule CC(=O)OC1C(=O)OCC23CCC4(C)OC4C2OC2CC(OC(=O)/C=C/C=C/C(=O)OCCC1C)C3(C)C21CO1 (stereo unspecified) has a GI50 (786-0 renal) of 8.11 nM, a TGI (786-0 renal) of 56 nM and a GI50 (A498 renal) of 7.14 nM. The TGI (A498 renal) was 18.1 nM, the GI50 (A549 NSCLC) was 7.56 nM and the TGI (A549 NSCLC) was 68.9 nM. For the same molecule, the GI50 (ACHN renal) was 6.44 nM, the TGI (ACHN renal) was 219 nM and the GI50 (BT-549 breast) was 5.64 nM. For the same molecule, the TGI (BT-549 breast) was 16.5 nM, the GI50 (CAKI-1 renal) was 26 nM and the TGI (CAKI-1 renal) was 152 nM. The GI50 (CCRF-CEM leukemia) was 1.45 nM, the TGI (CCRF-CEM leukemia) was 69.7 nM and the GI50 (COLO 205 colon) was 17.6 nM. The TGI (COLO 205 colon) was 77.2 nM, the GI50 (DU-145 prostate) was 82.5 nM and the TGI (DU-145 prostate) was 269 nM. It also gave a GI50 (EKVX NSCLC) of 376 nM, a TGI (EKVX NSCLC) of 4280 nM and a GI50 (HCC-2998 colon) of 5.24 nM. It also gave a TGI (HCC-2998 colon) of 20 nM, a GI50 (HCT-116 colon) of 1.48 nM and a TGI (HCT-116 colon) of 4.27 nM. It also gave a GI50 (HCT-15 colon) of 3.88 nM, a TGI (HCT-15 colon) of 59.4 nM and a GI50 (HL-60(TB) leukemia) of 1.33 nM. For the same molecule, the TGI (HL-60(TB) leukemia) was 10.7 nM, the GI50 (HOP-62 NSCLC) was 8.46 nM and the TGI (HOP-62 NSCLC) was 96.6 nM. It also gave a GI50 (HOP-92 NSCLC) of 10.3 nM, a TGI (HOP-92 NSCLC) of 57.3 nM and a GI50 (HS 578T breast) of 24.7 nM. The TGI (HS 578T breast) was 65.6 nM, the GI50 (HT29 colon) was 11 nM and the TGI (HT29 colon) was 55.4 nM. The GI50 (IGROV1 ovarian) was 6.17 nM, the TGI (IGROV1 ovarian) was 44.8 nM and the GI50 (K-562 leukemia) was 5.02 nM. It also gave a TGI (K-562 leukemia) of 789 nM, a GI50 (KM12 colon) of 20 nM and a TGI (KM12 colon) of 105 nM. It also gave a GI50 (LOX IMVI melanoma) of 1.18 nM, a TGI (LOX IMVI melanoma) of 1.65 nM and a GI50 (M14 melanoma) of 4.56 nM. For the same molecule, the TGI (M14 melanoma) was 12 nM, the GI50 (MALME-3M melanoma) was 9.96 nM and the TGI (MALME-3M melanoma) was 40.8 nM. For the same molecule, the GI50 (MDA-MB-231 breast) was 132 nM, the TGI (MDA-MB-231 breast) was 590 nM and the GI50 (MDA-MB-435) was 16 nM. The TGI (MDA-MB-435) was 51.1 nM, the GI50 (MDA-N) was 9.39 nM and the TGI (MDA-N) was 57.6 nM. For the same molecule, the GI50 (MOLT-4 leukemia) was 5.6 nM, the TGI (MOLT-4 leukemia) was 23.9 nM and the GI50 (NCI-H226 lung) was 7.11 nM. The TGI (NCI-H226 lung) was 22.7 nM, the GI50 (NCI-H23 lung) was 25.8 nM and the TGI (NCI-H23 lung) was 88.8 nM. The GI50 (NCI-H322M lung) was 186 nM, the TGI (NCI-H322M lung) was 1810 nM and the GI50 (NCI-H460 lung) was 3.19 nM. For the same molecule, the TGI (NCI-H460 lung) was 16.1 nM, the GI50 (NCI-H522 lung) was 1.5 nM and the TGI (NCI-H522 lung) was 4.7 nM. For the same molecule, the GI50 (NCI/ADR-RES ovarian) was 70.8 nM, the TGI (NCI/ADR-RES ovarian) was 1140 nM and the GI50 (OVCAR-3 ovarian) was 24.9 nM. The TGI (OVCAR-3 ovarian) was 136 nM, the GI50 (OVCAR-4 ovarian) was 37.1 nM and the TGI (OVCAR-4 ovarian) was 173 nM. It also gave a GI50 (OVCAR-5 ovarian) of 54 nM, a TGI (OVCAR-5 ovarian) of 415 nM and a GI50 (OVCAR-8 ovarian) of 4.67 nM. It also gave a TGI (OVCAR-8 ovarian) of 68 nM, a GI50 (PC-3 prostate) of 13.1 nM and a TGI (PC-3 prostate) of 60.4 nM. It also gave a GI50 (RPMI-8226 leukemia) of 1.1 nM, a TGI (RPMI-8226 leukemia) of 2.32 nM and a GI50 (RXF 393 renal) of 14.6 nM. It also gave a TGI (RXF 393 renal) of 68.6 nM, a GI50 (SF-268 CNS) of 38.3 nM and a TGI (SF-268 CNS) of 168 nM. The GI50 (SF-295 CNS) was 15.4 nM, the TGI (SF-295 CNS) was 73.7 nM and the GI50 (SK-MEL-2 melanoma) was 19.6 nM. The TGI (SK-MEL-2 melanoma) was 101 nM, the GI50 (SK-MEL-28 melanoma) was 6.11 nM and the TGI (SK-MEL-28 melanoma) was 25 nM. It also gave a GI50 (SK-MEL-5 melanoma) of 1.25 nM, a TGI (SK-MEL-5 melanoma) of 2.74 nM and a GI50 (SK-OV-3 ovarian) of 2.05 nM. The TGI (SK-OV-3 ovarian) was 22.1 nM, the GI50 (SN12C renal) was 43 nM and the TGI (SN12C renal) was 310 nM. For the same molecule, the GI50 (SNB-19 CNS) was 4.22 nM, the TGI (SNB-19 CNS) was 32.2 nM and the GI50 (SNB-75 CNS) was 2.15 nM. It also gave a TGI (SNB-75 CNS) of 6.87 nM, a GI50 (SR leukemia) of 12.5 nM and a TGI (SR leukemia) of 272 nM. For the same molecule, the GI50 (SW-620 colon) was 10.5 nM, the TGI (SW-620 colon) was 70.5 nM and the GI50 (T-47D breast) was 5.19 nM. The TGI (T-47D breast) was 26.8 nM, the GI50 (TK-10 renal) was 8.42 nM and the TGI (TK-10 renal) was 58.4 nM. The GI50 (U251 CNS) was 3.88 nM, the TGI (U251 CNS) was 140 nM and the GI50 (UACC-257 melanoma) was 23.1 nM. The TGI (UACC-257 melanoma) was 177 nM, the GI50 (UACC-62 melanoma) was 24.3 nM and the TGI (UACC-62 melanoma) was 93.6 nM. It also gave a GI50 (UO-31 renal) of 10.7 nM and a TGI (UO-31 renal) of 43.6 nM.
